The record followed here is ChEMBL document CHEMBL4610124, “Novel Thienopyrimidine Inhibitors of Leishmania N-Myristoyltransferase with On-Target Activity in Intracellular Amastigotes” (J Med Chem, 2020).

The test concerns Leishmania donovani. As to the kind of experiment: Inhibition of NMT in Leishmania donovani MHOM/ET/67/HU3 intracellular amastigotes assessed as reduction in protein myristoylation measured after 12 hrs in presence of YnMyr by Western blot analysis based tagging assay. Type of test: cell-based. For orientation: In western blotting, separated proteins are transferred to a membrane and probed.

As to `CN1CCC(N(C)c2nc(N(C)CCC#N)c3ccccc3n2)C1` (configuration not stated), the inhibition entry was “Dose-dependent effect”.
Next, `CN1CCC(N(C)c2nc(N(C)CCC#N)c3sccc3n2)CC1`: “Dose-dependent effect”.
